The subject of assay [1] is Human mammary adenocarcinoma SK-BR-3 cells. Description: In vitro cell proliferation assay (CellTiter-Glo, 6 days). Conditions: for EC50: killing of SK-BR-3 cells, 6 days. Format: cell-based. Background: Cellular ATP, detected with luciferase, serves as a proxy for viable cell number.
Assay [2] deals with Human gastric cancer cells NCI-N87. The assay is described as follows: In vivo efficacy evaluation in tumor-bearing mice. Also noted: species or system CB17-SCID mice. Conditions: DAR2 ADC study; NCI-N87 subcutaneous, administered once on day 12, dose shown in FIG. 9, tumor volume every three days. The protocol:
Transgenic mice with high expression of Her2 were used to determine the in vivo efficacy of ADCs. Human gastric cancer cells NCI-N87 (purchased from ATCC) were subcutaneously transplanted into CB17-SCID mice (6-8 weeks old, Beijing Vital River Laboratory Animal Technology Co., Ltd.), which were inoculated with 2×10^6 cells; the tumor size was measured and monitored using a vernier caliper and average tumor volume was calculated.
The tumor volume was measured every three days for each administration group.

Here are results for 2 substances from patent EP4775596A1, “CYSTEINE ENGINEERED ANTIBODY AND IMMUNOCONJUGATE” (priority 2023, dated 2025).

As a reminder, the EC50 is the concentration giving half of the maximal effect.

For the substance “TZB-Dxd-DAR4: Randomly conjugated control ADC of Trastuzumab and mc-GGFG-Dxd with an average DAR of 4”, the EC50 in assay [1] (Table 8-1) is 0.11 nM; in assay [1] (Table 8-2), 0.17 nM. The “tumor inhibitory effect / efficacy” value in assay [2] was “least effective”.

Take “TZB-Dxd-DAR8: DAR8 control ADC prepared from Trastuzumab fully reduced with TCEP and mc-GGFG-Dxd”: in assay [1] (SK-BR-3 cells, comparison between ADC groups, in words), the killing effect entry is “strongest killing effect”. The values for the concentration giving a half-maximal response (EC50) in assay [1] (Table 8-1) and in assay [1] (Table 8-2) were 0.066 nM and 0.033 nM, respectively. In assay [2], the “tumor inhibitory effect / efficacy” value was “strongest tumor inhibitory effect”.
